Patent publication US11141490B2, “Antibody-drug conjugates based on gold compounds” (Research Foundation of the City University of New York, priority 2018, dated 2021)

Legend:
Assay type in all cases: cell-based, human
BT-474 cells = experiment: Cell viability assay (PrestoBlue), BT-474; settings: BT-474, 72 h
Experimental: (§1) Cell viability assays were carried out to investigate the anti-proliferative effect of the AGCs. […] Auranofin was used for comparative purposes. The main results are collected in FIG. 5 and the results for compound 2 can be found in Table 1). Cells were incubated with the compounds for 72 hours and viability was assessed with Presto Blue. […] As mentioned before, linkers bring considerable advantages in terms of ADC stability.
(§2) Cell viability analysis for all compounds and AGCs described.
(§3) MCF7, MCF10A and BT-474 were obtained from the American Type Culture Collection (ATCC) (Manassas, Va.) and cultured in Dulbecco's modified Eagle's medium (DMEM) (Mediatech) supplemented with 10% FBS, 1% NEAA and 1% penicillin-streptomycin (MCF7 AND MCF1 OA) or DME HG/F12K, NEAA, 2 mM glutamine, 10% FBS/PS and incubated at 37° C. and 5% CO2 in a humidified incubator.
(§4) After 72 h, cell viability was determined by means of the colorimetric cell viability assay PrestoBlue (Invitrogen, Carlsbad, Calif.) according to the manufacturer's intructions. EC50 were fit using GraphPad Prism 7 to best match the experimental data. […] AF has been described to be stable for longer than 72 hours in DMSO solution at room temperature.
(§5) Tables 3 and Table 4 show EC50 Values (μM) in MCF7, MCF10A and BT474 cell lines determined with [AuCl(PPh3)] (DMF), [Au(mba)(PPh3)]

MCF-7 cells = experiment: Cell viability assay (PrestoBlue), MCF-7; settings: MCF-7, 72 h
Experimental: as §1, §2, §3, §4, §5

MCF-10A cells = experiment: Cell viability assay (PrestoBlue), MCF-10A; settings: MCF-10A non-cancerous breast cell line, 72 h
Experimental: as §1, §2, §3, §4, §5

EC50 (BT-474 cells): > 60 µM
EC50 (MCF-7 cells): > 60 µM
Substance: Trastuzumab [Tz]
EC50 (MCF-10A cells): > 50 µM
